# Measurements reported in patent publication US11099177B2, “Protein kinase allostery sensor and methods of making and using same” (REGENTS OF THE UNIVERSITY OF MINNESOTA, priority 2016, dated 2021).
# Assays:
# [1] = test system: Aurora A (AurA); assay: Steady-state FRET ligand titration with FRET-labeled AurA; assay type: binding, human; settings: apo AurA, Alexa 488/Alexa 568
# Procedure: The peptide TPX2 residues 1-43 (Selleck Chemicals, Houston, Tex.) was dissolved at 0.1 mM to 1.2 mM in 100 mM HEPES pH 7.5 and stored at −20° C. ADP stocks (Sigma-Aldrich Corporation, St. Louis, Mo.) were dissolved at 100 mM in 1 M HEPES pH 7.5 and stored at −20° C. Small molecule inhibitors including axitinib and MLN8054 (Selleck Chemicals, Houston, Tex.) were dissolved at 1 mM to 100 mM in DMSO and stored at −20° C.
# Steady-state FRET ligand titration experiments (with ADP, TPX2, and inhibitors) were performed at room temperature at 20 nM to 50 nM AurA in ADP Quest Assay buffer +1% DMSO in a Fluoromax-4 spectrofluorometer (Horiba, Ltd., Japan). Samples were excited at 490 nm and fluorescence emission was recorded 510 nm to 750 nm.
# Ligand binding data were visualized and analyzed using Microsoft Excel and Origin software. FRET was calculated using the equation E=1−(DA/D), where E is the efficiency of FRET, DA is the fluorescence of the AurA+D+A sample, and D is the fluorescence of the corresponding AurA+D control sample.
# [2] = target: T1, Aurora A (AurA) (Homo sapiens, UniProt O14965, C290S/C393S/L225C/S284C); assay: Time-resolved FRET lifetime assay, AurA biosensor labeled at L225C/S284C, 384-well plates
# T1 sequence (O14965 122-403 L225C/S284C/C290S/C393S): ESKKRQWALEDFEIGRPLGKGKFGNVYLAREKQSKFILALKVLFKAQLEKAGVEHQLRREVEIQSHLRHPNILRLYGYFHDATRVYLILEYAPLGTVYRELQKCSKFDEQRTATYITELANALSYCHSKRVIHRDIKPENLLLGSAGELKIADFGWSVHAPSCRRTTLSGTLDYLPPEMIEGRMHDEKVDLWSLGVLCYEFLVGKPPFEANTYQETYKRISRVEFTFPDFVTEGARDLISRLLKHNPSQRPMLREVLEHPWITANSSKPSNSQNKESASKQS
# T1 sequence (Q9ULW0 1-43 partner): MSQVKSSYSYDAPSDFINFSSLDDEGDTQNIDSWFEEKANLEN
# [3] = test system: Aurora A (AurA); assay: as above; settings: 5 μM inhibitor, samples lacking TPX2 (phosphorylated and unphosphorylated AurA)
structure (smiles),measurement,setting,value
O=C(O)c1ccc(Nc2ncc3c(n2)-c2ccc(Cl)cc2C(c2c(F)cccc2F)=NC3)cc1 [MLN-8054],change in FRET on addition of ligand,[1],increase in FRET
same,inter-probe distance relative to DFG-In compounds,[2],slightly shorter distances
same,inter-probe distance,[3],~30 Å
